This is an account of results in US20140128385A1 (NOVARTIS AG, priority 2011, published 2014).

Amino acid sequences for entries named in this document (tags omitted). Residues count along the entry.
UniProt Q9Y5Z0, 63-473 limits assumed: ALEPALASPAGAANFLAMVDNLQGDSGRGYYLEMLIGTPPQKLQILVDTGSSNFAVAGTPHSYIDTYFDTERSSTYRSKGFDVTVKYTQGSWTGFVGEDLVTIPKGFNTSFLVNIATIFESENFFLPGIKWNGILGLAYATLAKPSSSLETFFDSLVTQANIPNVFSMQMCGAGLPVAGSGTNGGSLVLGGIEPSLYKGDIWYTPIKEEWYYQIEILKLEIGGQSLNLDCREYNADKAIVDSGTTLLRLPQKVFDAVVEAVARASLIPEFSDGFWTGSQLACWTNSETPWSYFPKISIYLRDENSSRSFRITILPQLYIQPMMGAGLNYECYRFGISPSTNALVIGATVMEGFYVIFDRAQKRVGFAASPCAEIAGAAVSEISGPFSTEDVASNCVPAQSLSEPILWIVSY

This test addresses BACE-2 (Homo sapiens, UniProt Q9Y5Z0). Nature of the test: assay for inhibition of BACE-2. Type of test: biochemical. Particulars: read-out: BACE-2 IC50.

Where two headings read alike, the source gives them in different places.

For orientation: IC50 means the point on the concentration scale where inhibition reaches its midpoint. As to `COc1cnc(C(=O)Nc2ccc(F)c([C@]3(C(F)F)COCC(N)=N3)c2)cn1`, the IC50 came to 496 nM.

For `COc1ccc(C(=O)Nc2ccc(F)c([C@]3(C(F)F)COCC(N)=N3)c2)nc1`, for the setting “tested form: HCl”, the IC50 was found to be 32 nM.
